In the assay the target is O-acyltransferase (Oryctolagus cuniculus, UniProt G1SFD9). Nature of the assay: In vitro inhibition of acyl coenzyme A:cholesterol acyltransferase, in intestinal microsomes isolated from cholesterol-fed rabbits. Further details: species or system Intestine. The method in brief: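 Rabbit intestinal mucosa scraped, washed, homogenized in phosphate/KCl/EDTA/sucrose buffer; microsomes pelleted at 100000g and stored at -70 °C. Microsomes (0.3 mg protein) with BSA (0.5 mg) and inhibitor in DMSO/Tween-20 preincubated 5 min at 37 °C. [1-14C]oleoyl-CoA (10 nmol, 0.05 μCi) then added for 5 min. Cholesteryl oleate extracted, separated by TLC and counted by scintillation. Four dilutions per compound, in triplicate.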

The chains behind the UniProt entries cited, without tags or fusion partners. Residues count along the entry.
UniProt G1SFD9, 1-524: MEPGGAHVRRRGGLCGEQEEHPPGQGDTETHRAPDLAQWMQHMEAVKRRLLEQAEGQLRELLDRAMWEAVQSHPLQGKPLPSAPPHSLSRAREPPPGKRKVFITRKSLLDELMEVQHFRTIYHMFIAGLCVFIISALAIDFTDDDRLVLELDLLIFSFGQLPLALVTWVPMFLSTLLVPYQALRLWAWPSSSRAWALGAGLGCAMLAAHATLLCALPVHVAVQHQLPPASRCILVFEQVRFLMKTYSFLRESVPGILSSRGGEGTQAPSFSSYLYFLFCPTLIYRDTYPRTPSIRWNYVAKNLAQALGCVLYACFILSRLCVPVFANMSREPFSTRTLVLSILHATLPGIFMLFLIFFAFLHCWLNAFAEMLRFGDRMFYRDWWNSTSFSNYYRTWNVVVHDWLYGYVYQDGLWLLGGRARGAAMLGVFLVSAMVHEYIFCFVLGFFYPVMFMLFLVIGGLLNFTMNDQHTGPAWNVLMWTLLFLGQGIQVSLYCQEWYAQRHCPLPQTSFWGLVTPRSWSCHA

In turn, `CCCCCCCC/C=C\CCCCCCCC(=O)Nc1ccccc1` [OLEIC ACID ANILIDE] had a concentration for half-maximal inhibition (IC50) of 26 µM.

Molecule `CCCCCCCCCCCCC(C)C(=O)Nc1c(OC)cc(OC)cc1OC` (configuration not stated) yielded a half-inhibitory concentration (IC50) of 0.13 µM.

Values taken from ChEMBL document CHEMBL1125457, “Inhibitors of acyl-CoA:cholesterol acyltransferase. 1. Identification and structure-activity relationships of a novel series of fatty acid anilide hypocholesterolemic agents” (J Med Chem, 1992).
